In ChEMBL document CHEMBL3727350, “Agents and methods for treating ischemic and other diseases” (2014) one finds inhibition data, which are given here for four compounds.

By UniProt entry, the sequences of proteins in these tests, tags left out. Where a name states a change or a piece, a line headed by the entry shows the natural chain unless it says otherwise.
UniProt Q923J1: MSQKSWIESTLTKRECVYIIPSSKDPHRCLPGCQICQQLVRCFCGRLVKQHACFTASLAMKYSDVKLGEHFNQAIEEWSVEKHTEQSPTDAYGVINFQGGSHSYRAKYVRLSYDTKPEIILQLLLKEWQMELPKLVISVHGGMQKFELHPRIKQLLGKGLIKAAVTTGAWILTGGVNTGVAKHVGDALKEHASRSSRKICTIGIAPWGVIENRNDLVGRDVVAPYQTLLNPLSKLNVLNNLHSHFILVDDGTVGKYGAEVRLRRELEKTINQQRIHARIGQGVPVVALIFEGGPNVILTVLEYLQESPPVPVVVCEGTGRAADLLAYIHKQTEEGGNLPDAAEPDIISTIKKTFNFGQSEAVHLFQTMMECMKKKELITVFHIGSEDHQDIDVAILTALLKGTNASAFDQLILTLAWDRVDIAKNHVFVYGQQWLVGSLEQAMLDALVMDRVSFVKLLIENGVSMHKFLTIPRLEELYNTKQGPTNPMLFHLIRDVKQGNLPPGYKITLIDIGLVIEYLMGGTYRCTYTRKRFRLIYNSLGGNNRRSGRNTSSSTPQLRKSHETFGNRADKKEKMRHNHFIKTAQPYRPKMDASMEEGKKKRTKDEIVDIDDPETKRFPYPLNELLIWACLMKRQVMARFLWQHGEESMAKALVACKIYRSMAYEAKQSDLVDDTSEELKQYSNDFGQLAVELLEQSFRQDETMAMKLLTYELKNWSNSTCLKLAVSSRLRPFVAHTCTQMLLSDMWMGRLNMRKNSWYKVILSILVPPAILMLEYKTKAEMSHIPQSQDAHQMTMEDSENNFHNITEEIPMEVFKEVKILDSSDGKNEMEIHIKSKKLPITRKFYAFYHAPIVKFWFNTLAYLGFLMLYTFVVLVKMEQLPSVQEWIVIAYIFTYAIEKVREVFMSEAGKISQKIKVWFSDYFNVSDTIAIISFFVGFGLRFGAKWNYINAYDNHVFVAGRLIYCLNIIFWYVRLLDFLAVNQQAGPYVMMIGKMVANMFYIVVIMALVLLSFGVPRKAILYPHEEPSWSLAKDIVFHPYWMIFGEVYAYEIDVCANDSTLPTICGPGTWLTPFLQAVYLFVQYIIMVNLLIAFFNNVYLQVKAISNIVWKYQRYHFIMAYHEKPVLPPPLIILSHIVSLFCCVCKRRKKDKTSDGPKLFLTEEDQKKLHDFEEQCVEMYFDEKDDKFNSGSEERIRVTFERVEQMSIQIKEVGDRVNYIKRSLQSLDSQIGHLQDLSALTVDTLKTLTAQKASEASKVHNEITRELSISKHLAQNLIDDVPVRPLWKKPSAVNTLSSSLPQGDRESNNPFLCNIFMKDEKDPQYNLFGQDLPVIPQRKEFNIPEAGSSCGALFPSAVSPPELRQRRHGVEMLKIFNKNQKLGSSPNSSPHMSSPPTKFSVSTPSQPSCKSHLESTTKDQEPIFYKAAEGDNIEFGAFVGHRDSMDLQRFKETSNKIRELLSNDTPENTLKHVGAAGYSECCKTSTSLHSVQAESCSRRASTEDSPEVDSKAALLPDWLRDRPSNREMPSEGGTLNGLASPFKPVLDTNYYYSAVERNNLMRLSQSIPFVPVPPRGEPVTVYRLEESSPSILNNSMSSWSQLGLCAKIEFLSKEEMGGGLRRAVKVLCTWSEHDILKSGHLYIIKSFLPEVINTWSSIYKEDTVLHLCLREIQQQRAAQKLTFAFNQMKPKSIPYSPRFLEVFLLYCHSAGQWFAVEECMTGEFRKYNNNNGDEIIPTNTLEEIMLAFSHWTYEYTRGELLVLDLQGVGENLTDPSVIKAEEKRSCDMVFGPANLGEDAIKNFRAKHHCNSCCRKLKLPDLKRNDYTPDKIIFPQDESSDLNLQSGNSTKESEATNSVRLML

The test deals with Transient receptor potential cation channel subfamily M member 7 (Mus musculus) (UniProt Q923J1). Description: Inhibition of Tet-induced Flag-tagged mouse TRPM7 expressed in HEK293 cells assessed as inhibition of channel-mediated cell death in presence of Mg2+ incubated for 24 to 48 hrs by propidium iodide uptake assay. It is filed as cell-based. The arrangement: concentration or dose not given beside the values.

The structures appear in SMILES notation. The source made the active and inactive calls. The rule behind the calls is not given here.

Take `O=C(O)c1cc(=O)cc(C(=O)O)[nH]1`: the inhibition result was “Dose-dependent effect”.
`O=C1c2c(O)ccc(O)c2C(=O)c2c(NCCNCCO)ccc(NCCNCCO)c21`: the inhibition entry is “Dose-dependent effect”.
The same measure for `CC[C@@H](C(=O)[C@@H](C)[C@@H](O)[C@H](C)CCc1ccc(C)c(O)c1C(=O)O)[C@H]1O[C@](CC)([C@H]2CC[C@](O)(CC)[C@H](C)O2)C[C@@H]1C`: “Active”; for `COc1cccc2c1C(=O)c1c(O)c3c(c(O)c1C2=O)C[C@@](O)(C(=O)CO)C[C@@H]3O[C@H]1C[C@H](N)[C@H](O)[C@H](C)O1`: “Dose-dependent effect”.
